Laboratory results published in PubChem BioAssay AID2094 (Broad Institute, 2009).
This is a selection; strong and weak results do not stand in their true shares. Activity calls are given as the source filed them. Cut-off read from the data, not from the text of the source: active = activity change below about -75% (passing the limit was not always enough); inconclusive = no clear call, values can overlap the other calls.

Assay: modulation of AI-2 quorum-sensing luminescence – JMH597 strain, luminescence/OD600 ratio, primary screen (AID 2094);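 note: luminescence divided by OD600 gain over 9 h not by final OD600 alone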
Details: Vibrio harveyi JMH597 AI-2 luminescence/OD600 ratio, 9 h; at 7.5 µM; hits give low values; 0 = neutral-control median; strain lacks LuxN and CqsS sensors

Row | Compound | activity change
1 | Nc1cc(N)c2nonc2c1[N+](=O)[O-] | inactive: 8.11%
2 | CC(C)CC(=O)NC(Sc1ccc(Cl)cc1)C(Cl)(Cl)Cl (stereo unspecified) | inactive: 12.9%
3 | Oc1ccccc1CNc1ccccn1 | inactive: 30.7%
4 | O=C(NC(Sc1ccncn1)C(Cl)(Cl)Cl)c1ccccc1 (stereo unspecified) | inactive: 19.1%
5 | Cc1c2non([O-])c-2c(C)[n+](=O)[n+]1[O-] | inactive: -2.95%
6 | NC(=O)c1cc([N+](=O)[O-])cc([N+](=O)[O-])c1N | inactive: 36.9%
7 | Cc1ccc(N/C(=N/P(=O)(N2CCOCC2)N2CCOCC2)N2CCOCC2)cc1 | inactive: 7.07%
8 | COc1ccccc1OP(=O)(Nc1ccc(C)cn1)Oc1ccccc1OC | inactive: 14.3%
9 | Cc1ccc(OP(=O)(Nc2nccs2)Oc2ccc(C)cc2)cc1 | inactive: 4.31%
10 | CN1CCCC(OC(=O)C(c2ccccc2)c2ccccc2)C1 (stereo unspecified) | inactive: 21.5%
11 | Clc1ccc(Cl)c(NC2=NCC(CBr)S2)c1 (stereo unspecified) | inactive: 9.07%
12 | O=[N+]([O-])c1cc([N+](=O)[O-])c(CCN2CCOCC2)c([N+](=O)[O-])c1 | inactive: 44.3%
13 | CCN(N=Nc1nonc1N)c1nonc1N | inactive: 16.7%
14 | Nc1cccc2ccc([As](=O)(O)O)cc12 | inactive: 26.6%
15 | CC(=O)Nc1ccc([As](=O)(O)O)cc1 | inactive: 6.35%
16 | O=C(O)c1ccccc1[As](=O)(O)O | inactive: 9.6%
17 | O=P(Nc1nc2ccc(Cl)cc2s1)(c1ccccc1)c1ccccc1 | inactive: -6.17%
18 | Cc1cc(SC(NC(=O)c2ccc(F)cc2)C(Cl)(Cl)Cl)ncn1 (stereo unspecified) | inactive: 27.4%
19 | CCOP(=O)(Nc1ccccc1)OCC | inactive: -2.99%
20 | Cc1ccc(NP(=O)(Oc2ccccc2F)Oc2ccccc2F)nc1 | inactive: 8.79%
21 | CN(C(=O)Cc1ccc(Cl)c(Cl)c1)[C@H]1CCCC[C@@H]1N1CCCC1 | inactive: -3.61%
22 | CC(C)(C)C(=O)NC(Sc1ccncn1)C(Cl)(Cl)Cl (stereo unspecified) | inactive: 2.16%
23 | O=[N+]([O-])c1ncn(CCn2ncnc2[N+](=O)[O-])n1 | inactive: 0.6%
24 | O=[N+]([O-])c1cccc(NC2=NCC(CBr)S2)c1 (stereo unspecified) | inactive: 3.3%
25 | O=C(O)CNc1ccc([As](=O)(O)O)cc1 | inactive: 12.2%
26 | O=C(Nc1cc([As](=O)(O)O)ccc1O)c1ccccc1 | inactive: 10.3%

Row | Compound | activity change
27 | Nc1ccc([As](=O)(O)c2ccc(N)cc2)cc1 | inactive: 13.7%
28 | C[N+]1=C2C=CC=CC=C2SC12C([N+](=O)[O-])=CC([N+](=O)[O-])=C[C-]2[N+](=O)[O-] (stereo unspecified) | inactive: -52%
29 | CCN(/C(=N/P(=O)(N1CCOCC1)N1CCOCC1)N1CCOCC1)c1ccc(OC)cc1 | inactive: 34.1%
30 | CC(C)=N/N=C(\N)N[N+](=O)[O-] | inactive: 19.1%
31 | CN(C)C(=O)OCCc1n(C)cc[n+]1C | inactive: 7.24%
32 | CC1CCN(C(=O)Oc2c(Cl)cc(Cl)c3cccnc23)CC1 | inactive: 19.6%
33 | COc1ccc(C2=NCC(CBr)S2)cc1 (stereo unspecified) | inactive: 7.88%
34 | O=[N+]([O-])c1cccc2n[nH]nc12 | inactive: 30.7%
35 | CC(=O)N1C2C3N(C(C)=O)C1C1N(C(C)=O)C(C(N1C(C)=O)N3C(C)=O)N2C(C)=O | inactive: -5.05%
36 | Cc1ccc(NP(=O)(Oc2ccccc2)Oc2ccccc2)nc1 | inactive: -9.18%
37 | CCc1nc2c(n1)c1c(non1O)c1c2no[n+]1[O-] | inactive: 20.2%
38 | O=[N+]([O-])c1cc([N+](=O)[O-])c(CCNc2ccccc2)c([N+](=O)[O-])c1 | inactive: 19.7%
39 | CC(C)C(=O)NC(Sc1ccccc1)C(Cl)(Cl)Cl (stereo unspecified) | inactive: 17.8%
40 | O=P(Nc1nccs1)(c1ccccc1)c1ccccc1 | inactive: -2.46%
41 | c1nnnn1CCn1cnnn1 | inactive: 23.5%
42 | CC(=O)NC(SC(=S)N(C)C)C(Cl)(Cl)Cl (stereo unspecified) | inactive: 26.6%
43 | O=[N+]([O-])c1ncn(CCn2cnc([N+](=O)[O-])n2)n1 | inactive: 7.52%
44 | O=[As](O)(c1ccccc1)c1ccc(O)cc1 | inactive: 9.85%
45 | C(Cc1nn[nH]n1)Cc1nn[nH]n1 | inactive: 5.15%
46 | Nc1ccc([As](=O)(O)c2ccc([N+](=O)[O-])cc2)cc1 | inactive: 6.45%
47 | O=C(OC1CN2CCC1CC2)c1cccc(Cl)c1 (stereo unspecified) | inactive: 16.3%
48 | O=P(Nc1ccccn1)(c1ccc(Br)cc1)c1ccc(Br)cc1 | inactive: 40.6%
49 | CN(C)C1(CNC(=O)c2ccc(Cl)c(S(N)(=O)=O)c2)CCCCC1 | inactive: 10.6%
50 | O=P(Nc1nc2ccccc2s1)(c1ccccc1)c1ccccc1 | inactive: 27.3%
51 | C[C@H]1OP(=O)(Oc2ccccc2)[C@H](O)[C@H](O)[C@H]1N=[N+]=[N-] (stereo partly specified) | inactive: 13%
